Common to all, as to assay type: functional
Assay [1] relates to Acinetobacter baumannii. The assay is described as follows: Selectivity ratio of IC50 for efflux pump lacking Acinetobacter baumannii to IC50 for efflux pump lacking/OM pore producing Acinetobacter baumannii.
Assay [2] concerns Acinetobacter baumannii. Briefly: Selectivity ratio of IC50 for OM pore producing Acinetobacter baumannii to IC50 for efflux pump lacking/OM pore producing Acinetobacter baumannii.
Assay [3] concerns Escherichia coli. The assay is described as follows: Selectivity ratio of IC50 for efflux pump lacking Escherichia coli to IC50 for efflux pump lacking/OM pore producing Escherichia coli.
The test system of assay [4] is Escherichia coli. The assay is described as follows: Selectivity ratio of IC50 for OM pore producing Escherichia coli to IC50 for efflux pump lacking/OM pore producing Escherichia coli.

Structures are written as SMILES.

Consider `C[n+]1ccc2ccc(-c3ccc(N4C[C@H](CO)OC4=O)cc3F)cc2c1`, for which, in assay [1], the Ratio IC50 worked out at 5.

In the case of `O=C1O[C@@H](CO)CN1c1ccc(-c2ccc(-c3cccnc3)cc2)c(F)c1`, the Ratio IC50 was 10 in assay [2] and above 5 in assay [1].

For the molecule `CNC(=O)NCC#Cc1ccc(N2C[C@H](CO)OC2=O)cc1F`, the Ratio IC50 in assay [3] was above 10; in assay [4], above 9.

Consider `O=C1O[C@@H](CO)CN1c1ccc(-c2ccc(O)cc2)c(F)c1`, for which the Ratio IC50 in assay [4] came out at 10.

With `Nc1ncc(-c2ccc(N3C[C@H](CO)OC3=O)cc2F)cn1`, in assay [2], the Ratio IC50 came to 8.

As to `O=C1O[C@@H](CO)CN1c1ccc(-c2ccc3c(c2)OCO3)c(F)c1`, the Ratio IC50 was above 67 in assay [2] and 8 in assay [4].

As for `O=C1O[C@@H](CO)CN1c1ccc(-c2ccc(-c3ccncc3)cc2)c(F)c1`, the Ratio IC50 in assay [2] was above 16; in assay [1], 16.

On to `O=C1O[C@@H](CO)CN1c1ccc(-c2ccnc(N3CCCC3)c2)c(F)c1`, for which, in assay [3], the Ratio IC50 came to 10.

Consider `CC(C)c1ccc(-c2ccc(N3C[C@H](CO)OC3=O)cc2F)c(C(C)C)c1`, for which the Ratio IC50 in assay [2] was 10.

For `O=Cc1ccc(-c2ccc(N3C[C@H](CO)OC3=O)cc2F)cc1`, the figures for the Ratio IC50 in assay [2] and in assay [4] were 14 and 12, respectively.

As to `O=C1O[C@@H](CO)CN1c1ccc(C#Cc2cc(Cl)cc(Cl)c2)c(F)c1`, the Ratio IC50 in assay [3] came to 7.

As for `Cc1nn(C)c(C)c1C#Cc1ccc(N2C[C@H](CO)OC2=O)cc1F`, the Ratio IC50 in assay [3] worked out at 25.

For the molecule `N/C(=N/O)c1ccc(-c2ccc(N3C[C@H](CO)OC3=O)cc2F)cc1`, the Ratio IC50 in assay [4] turned out to be 7.

`C[n+]1ccc(-c2ccc(-c3ccc(N4C[C@H](CO)OC4=O)cc3F)cc2)cc1`: the Ratio IC50 in assay [1] was 6.

Regarding `COc1ccc(-c2ccc(N3C[C@H](CO)OC3=O)cc2F)cc1`, the Ratio IC50 was above 15 in assay [2] and 14 in assay [4].

As to `O=C1O[C@@H](CO)CN1c1ccc(-c2ccc(F)cc2)c(F)c1`, the Ratio IC50 in assay [4] is 10.

`O=C1O[C@@H](CO)CN1c1ccc(-c2ccccc2)c(F)c1`: the Ratio IC50 in assay [4] was determined as 7.

Take `Cc1ccc(-c2ccc(N3C[C@H](CO)OC3=O)cc2F)cc1`: the Ratio IC50 in assay [2] was above 62; in assay [4], 10.

As to `O=C(O)c1ccc(-c2ccc(N3C[C@H](CO)OC3=O)cc2F)cc1`, the Ratio IC50 in assay [2] is 5; in assay [3] it was 21; in assay [4], above 39.

As to `O=C1O[C@@H](CO)CN1c1ccc(-c2ccc(C(F)(F)F)cc2)c(F)c1`, the Ratio IC50 in assay [2] turned out to be 11; in assay [4], 10.

For the origin of these results see ChEMBL document CHEMBL5104202, “Structure-Uptake Relationship Studies of Oxazolidinones in Gram-Negative ESKAPE Pathogens” (J Med Chem, 2022).
